Source: publication PMC6359284, “Identification, Characterization, and Optimization of Integrin αvβ6-Targeting Peptides from a One-Bead One-Compound (OBOC) Library: Towards the Development of Positron Emission Tomography (PET) Imaging Agents” (Molecules, 2019)
Peptide text beside a SMILES is read from it. * marks the point of attachment. Benzoyl(4-F) = O=C(c1ccc(F)cc1)*

What was measured:
[1] = test system: DX3puroEmGFP (αvβ6−, green) cells; assay: On-bead validation, binding of αvβ6− fluorescent cells; conditions: 3 h post-incubation, qualitative
[2] = test system: DX3puroβ6mCherry (αvβ6+, red) cells; assay: On-bead validation, binding of αvβ6+ fluorescent cells; conditions: 3 h post-incubation, qualitative

| SMILES | on-bead binding to DX3puroEmGFP (αvβ6−, green) cells, single cell assay [1] | on-bead binding to DX3puroβ6mCherry (αvβ6+, red) cells, single cell assay [2] |
| --- | --- | --- |
| CC(C)C[C@H](NC(=O)[C@H](CC(=O)O)NC(=O)CNC(=O)[C@@H](N)CCCNC(=N)N)C(=O)N[C@@H](C)C(=O)N[C@@H](CC(=O)O)C(=O)N[C@@H](CC(C)C)C(=O)N[C@@H](CCCNC(=N)N)C(=O)N[C@@H](CCCCNC(=O)c1ccc(F)cc1)C(N)=O [compound 3] (H-RGDLADLRK(Benzoyl(4-F))-NH2; N-terminus assumed) | noticeable binding | – |
| CSCC[C@H](NC(=O)[C@H](CC(C)C)NC(=O)[C@H](CC(=O)O)NC(=O)CNC(=O)[C@@H](N)CCCNC(=N)N)C(=O)N[C@@H](CCCCN)C(=O)N[C@@H](CC(C)C)C(=O)N[C@@H](C)C(=O)N[C@@H](CCCCNC(=O)c1ccc(F)cc1)C(N)=O [compound 2] (H-RGDLMKLAK(Benzoyl(4-F))-NH2; N-terminus assumed) | noticeable binding | – |
| CC(C)C[C@H](NC(=O)[C@H](Cc1ccc(O)cc1)NC(=O)[C@@H](NC(=O)[C@H](CC(C)C)NC(=O)[C@H](CC(=O)O)NC(=O)CNC(=O)[C@@H](N)C(C)C)[C@@H](C)O)C(=O)N[C@@H](CCCCN)C(=O)N[C@@H](CCCCNC(=O)c1ccc(F)cc1)C(N)=O [compound 1] (H-VGDLTYLKK(Benzoyl(4-F))-NH2; N-terminus assumed) | little binding | high selectivity |
| CC[C@H](C)[C@H](NC(=O)CN)C(=O)N[C@@H](CC(=O)O)C(=O)N[C@@H](CC(C)C)C(=O)N[C@H](C(=O)N[C@@H](CO)C(=O)N[C@@H](CC(C)C)C(=O)N[C@H](C(=O)N[C@@H](CCCCNC(=O)c1ccc(F)cc1)C(N)=O)[C@@H](C)O)[C@@H](C)O [compound 4] (H-GIDLTSLTK(Benzoyl(4-F))-NH2; N-terminus assumed) | no binding | no binding |
| CC(C)C[C@H](NC(=O)[C@H](CCC(=O)O)NC(=O)[C@H](CCCNC(=N)N)NC(=O)[C@H](CC(C)C)NC(=O)[C@H](CC(=O)O)NC(=O)CNC(=O)[C@@H](N)CCCNC(=N)N)C(=O)N[C@@H](C)C(=O)N[C@@H](CCCCNC(=O)c1ccc(F)cc1)C(N)=O [compound 5] (H-RGDLRELAK(Benzoyl(4-F))-NH2; N-terminus assumed) | noticeable binding | – |
